The assay has as its target mCherry-WAVE1 PWCA (274–559aa), for surface immobilization (human) (UniProt Q92558).

“Native, cytoplasmic actin from Acanthamoeba castellanii, monomeric (natural protein)” returned an elongation of surface-proximal filaments on immobilised PWCA in 1 μM monomeric actin, compared to immobilised mCherry (TIRF) of 3.5 fold.
